A selection: hits, their analogues and other compounds. The true share with any hit is near 0.94%.
PKA-R1A activ: activators of PKA-R1A holoenzyme, primary screen, biochemical, fluorescence polarization, Cy5-IP20, bovine R1A, mouse PKAc; hit rate 0.083% among 340,000; activation, % at 11.4 µM; AID 504707, 2011; PKA-R1A dissociation; scaled: DMSO 0%, 113 µM cGMP 100%; cAMP-dependent protein kinase type I-alpha regulatory subunit (Bos taurus) + …;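 active = percent activation above the mean of all tested compounds plus 3 SD, cut at about 19% in these data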;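 also: higher means more PKAc released from R1A so a rise in polarization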
Yeast UUG start: alters start codon recognition fidelity in yeast. S. cerevisiae UUG-firefly luciferase reporter, luminescence/redox ratio. 350,000 tested, 0.13% active. activity score, % at 18.7 µM. AID 602363;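 active means replicate mean at a twofold rise or more, about +100% in these data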;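 further: firefly luciferase made from a UUG start codon reports start codon fidelity; reporter light over untreated wells divided by growth signal over untreated wells; some hits fall short of that in this replicate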
ABCB6 inh 2: ABCB6 transporter inhibitors, primary screen, K562-ABCB6 cells, flow cytometry, MLPCN library | K562-ABCB6 porphyrin accumulation, 1 h; active compounds read low | hit rate 0.19% among 360,000 | fluorescence ratio to DMSO, % at 10 µM | ATP-binding cassette sub-family B member 6 (Homo sapiens), Q9NP58;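 active = fluorescence ratio to DMSO below 75%, the collection mean minus 3 SD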;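 also: signal is porphyrin accumulated inside mitochondria; 100% equals median channel fluorescence of DMSO control wells; lower ratio means ABCB6 inhibition with less porphyrin fluorescence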
Exocytosis inh: LAMP-1 surface exposure blockers, TALL-104 cells – cell-based, flow cytometry, MLPCN library, primary screen; TALL-104 LAMP-1 surface exposure; cells stimulated with thapsigargin and PMA; inhibition, % at 10 µM; hit rate 0.66% among 360,000; AID 651702, 2012;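 active = inhibition above about 55%, limit read from the data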
pCIP destab: p/CIP-EGFP fusion destabilizers, primary screen, fluorescence, F442A cells | 16 h | decrease of EGFP signal, % at 10 µM | hit rate 0.01% among 290,000;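 active = EGFP signal decrease of at least 30% at 10 µM or well 3 SD below plate mean, unless failing retest; inactive = the rest, including hits failing retest or dose response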
PKA-R2B act: activators of PKA-R2B holoenzyme, primary screen, biochemical, fluorescence polarization, Cy5-IP20, human | cAMP-dependent protein kinase catalytic subunit beta (Homo sapiens) + cAMP-dependent … | PKA-R2B holoenzyme dissociation; R2B truncated from residue 108, S112A mutant; 0% DMSO only, 100% 113 µM cGMP | activation, % at 11.4 µM | hit rate 0.079% among 340,000 | AID 504700, 2011;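 active = activation above a cutoff set at the mean over all compounds plus 3 SD, cut at about 18% in these data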;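 also: higher means more holoenzyme dissociation and a rise in polarization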
ABCB6 blocker 1: ABCB6 transporter inhibitors, confirmation, K562-ABCB6 cells, flow cytometry, cherry pick 1 | K562-ABCB6 porphyrin accumulation, 1 h; active compounds read low | ratio response (% of DMSO), % at 10 µM | 700 tested, under 10 active | shares compounds with ABCB6 inh 2 | AID 602430, 2012;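 active = repeat-averaged ratio response below 75% of DMSO, the collection mean minus 3 SD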;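 also: median porphyrin fluorescence at 575 nm with 488 nm excitation from mitochondria; lower ratio means less porphyrin signal so ABCB6 inhibition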
* hit, by the source's call; · = no result.

SMILES | PKA-R1A activ | Yeast UUG start | ABCB6 inh 2 | Exocytosis inh | pCIP destab | PKA-R2B act | ABCB6 blocker 1
O=C(CN1CCOCC1)NCC[C@H]1CC[C@H](NC(=O)c2ccc3c(c2)OCO3)[C@H](CO)O1 | · | 48 | · | · | · | · | ·
COc1ccc(C(=O)N2CCN=C2c2ccccc2)cc1OC | 9 | -10 | 73* | 0 | -7 | -1 | 100
O=C(c1ccccc1)N1CCN=C1c1ccccc1 | -7 | 1 | 100 | -1 | 4 | 3 | ·
CCCN1C[C@H](C)[C@H](OC)CN(C)C(=O)c2cc(NS(=O)(=O)c3cn(C)cn3)ccc2OC[C@@H]1C | · | -9 | · | · | · | · | ·
Cc1noc(C)c1NC(=O)N(C)C[C@H]1Oc2c(NS(=O)(=O)c3cn(C)cn3)cccc2C(=O)N([C@@H](C)CO)C[C@@H]1C | · | -6 | · | · | · | · | ·
CC1(C(=O)NS(=O)(=O)c2ccc(C#N)cc2)CCN1C(=O)CCc1ccc(Cl)cc1Cl (stereo not drawn) | · | -4 | 73* | -8 | · | · | 100
CC1(C(=O)NS(=O)(=O)c2ccc(F)cc2F)CCN1C(=O)CCc1ccc(Cl)cc1Cl (stereo not drawn) | · | -5 | 101 | -1 | · | · | 100
CC1(C(=O)NS(=O)(=O)c2cccc(F)c2)CCN1C(=O)CCc1ccc(Cl)cc1Cl (stereo not drawn) | · | 12 | 97 | -15 | · | · | ·
C[C@@H]1CN([C@H](C)CO)C(=O)c2cc(NC(=O)c3ccncc3)ccc2O[C@@H](C)CCCCO[C@H]1CN(C)S(=O)(=O)c1cccs1 | · | -7 | · | · | · | · | ·
O=C(Nc1ccc(Cl)c(Cl)c1)N[C@@H]1CC[C@H](CCn2cc(C3CCCCC3)nn2)O[C@@H]1CO | · | -12 | · | · | · | · | ·
COc1ccccc1Cn1nnc2c(=O)[nH]c(C3CCN(C(=O)c4ccccc4Cl)CC3)nc21 | 4 | 9 | 99 | 2 | 2 | -12 | 100
O=C(c1ccccc1Cl)N1CCC(c2nc3c(nnn3Cc3ccco3)c(=O)[nH]2)CC1 | 11 | -10 | 92 | -5 | 2 | 10 | ·
COc1ccccc1Cn1nnc2c(=O)[nH]c(C3CCN(C(=O)c4ccc(C)cc4)CC3)nc21 | -7 | 9 | 112 | -1 | -1 | 3 | 100
COc1ccccc1Cn1nnc2c(=O)[nH]c(C3CCN(C(=O)c4ccc(F)cc4)CC3)nc21 | -1 | -2 | 98 | -1 | -2 | 0 | ·
CO[C@@H]1CN(C)C(=O)c2ccc(NC(C)=O)cc2OC[C@H](C)N(C(=O)CC2CC2)C[C@H]1C | · | -4 | · | · | · | · | ·
CC1C(=O)Nc2ccccc2N1C(=O)C1CC1 (stereo not drawn) | -6 | -22 | 72* | 7 | 10 | -8 | 100
CC(=O)Oc1cccc(/C=C2\Sc3ccccc3C2=O)c1 | -3 | · | 72* | -9 | -1 | 3 | 96
O=C(c1ccc(COc2ccc(Cl)cc2)o1)N1N=C(C(F)F)CC1(O)C(F)F (stereo not drawn) | -8 | -22 | 95 | 3 | 0 | -18 | 101
O=C(c1ccc(Cn2cc(Br)cn2)o1)N1N=C(C(F)F)CC1(O)C(F)F (stereo not drawn) | -6 | 8 | 99 | 2 | 10 | -1 | ·
COc1ccccc1OCc1ccc(C(=O)N2N=C(C(F)F)CC2(O)C(F)F)o1 (stereo not drawn) | -8 | · | 108 | -2 | -40 | 2 | 99

Entries of single compounds, quoted from the list.
O=C(c1ccc(Cn2cc(Br)cn2)o1)N1N=C(C(F)F)CC1(O)C(F)F (stereo not drawn) is entered as PKA-R1A activ: -6; Yeast UUG start: 8; ABCB6 inh 2: 99; Exocytosis inh: 2; pCIP destab: 10; PKA-R2B act: -1; ABCB6 blocker 1: ·
O=C(CN1CCOCC1)NCC[C@H]1CC[C@H](NC(=O)c2ccc3c(c2)OCO3)[C@H](CO)O1 is entered as PKA-R1A activ: ·; Yeast UUG start: 48; ABCB6 inh 2: ·; Exocytosis inh: ·; pCIP destab: ·; PKA-R2B act: ·; ABCB6 blocker 1: ·

Following part
SMILES | PKA-R1A activ | Yeast UUG start | ABCB6 inh 2 | Exocytosis inh | pCIP destab | PKA-R2B act | ABCB6 blocker 1
O=S(=O)(N[C@H]1CC[C@H](CCn2cc(-c3cccc(F)c3)nn2)O[C@@H]1CO)c1ccc(F)cc1 | · | -1 | · | · | · | · | ·
O=C(C1CCCC1)N1C[C@H]2[C@@H](c3ccccc31)[C@H](CO)N2C(=O)Nc1cccc(F)c1 | · | 28 | · | · | · | · | ·
CC(C)(C)c1cc(NC(=O)COC(=O)c2ccc3c(=O)n4c(nc3c2)CCC4)n(-c2ccccc2)n1 | -8 | -6 | 69* | -1 | -6 | 6 | 101
C[C@@H]1CCCCO[C@@H](CN(C)C(=O)Nc2cccc3ccccc23)[C@H](C)CN([C@@H](C)CO)C(=O)c2cc(NC(=O)NC3CCCCC3)ccc2O1 | · | -9 | · | · | · | · | ·
CCOc1ccc(N2C(=O)Cc3ccccc3C2=O)cc1 | -1 | -11 | 73* | -1 | 0 | -6 | 102
CCOC(=O)c1ccc(N2C(=O)Cc3ccccc3C2=O)cc1 | 4 | -10 | 95 | -3 | 3 | -15 | ·
CCN(CC)S(=O)(=O)c1cccc(-n2c(O)c(C=Nc3ccccc3C(=O)O)c3ccccc3c2=O)c1 | -7 | -11 | 74* | 0 | -6 | 9 | 83
O=C(O)c1ccccc1N=Cc1c(O)n(-c2nccs2)c(=O)c2ccccc12 | -8 | · | 95 | 5 | -4 | 2 | ·
Cc1ccc(S(=O)(=O)N(C)C[C@@H]2Oc3ccc(N(C)C)cc3C(=O)N([C@H](C)CO)C[C@H]2C)cc1 | · | -5 | · | · | · | · | ·
COC(=O)CCC(=O)Nc1ccc(NC(=O)CCC(=O)OC)cc1 | 11 | · | 99 | 3 | -15 | 4 | ·
COC(=O)CCC(=O)Nc1cc(Cl)cc(Cl)c1 | -8 | · | 72* | 2 | -1 | -6 | 100
CC(Oc1cc2oc(=O)c3c(c2cc1Cl)CCCC3)C(=O)NCc1cccnc1 (stereo not drawn) | -17 | -18 | 97 | -17 | -13 | 7 | ·
CC(Oc1ccc2c3c(c(=O)oc2c1)CCCC3)C(=O)NCc1cccnc1 (stereo not drawn) | -4 | -15 | 58* | -4 | -14 | -4 | 101
CC(=O)N1C(=O)C2(C(C#N)=C(N)Oc3c2c(C)nn3-c2ccccc2)c2ccccc21 (stereo not drawn) | -7 | 12 | 44* | 4 | -4 | -8 | 101
Cc1ccc(S(=O)(=O)Nc2ccc3c(c2)C(=O)N([C@@H](C)CO)C[C@H](C)[C@@H](CN(C)C(=O)c2ccccc2)OCCCC[C@@H](C)O3)cc1 | · | 18 | · | · | · | · | ·
O=C(COC(=O)CCCC1=NS(=O)(=O)c2ccccc2N1)Nc1ccccc1 | 2 | -6 | 98 | 10 | -9 | 0 | 99
Cc1cccc(NC(=O)COC(=O)CCCC2=NS(=O)(=O)c3ccccc3N2)c1 | 5 | 14 | 103 | 2 | -4 | -2 | ·
COc1cc(NC(=O)COC(=O)CCCC2=NS(=O)(=O)c3ccccc3N2)cc(OC)c1 | -7 | 9 | 97 | -3 | 8 | -3 | 100

Some of these compounds in order of length of the SMILES, ascending:
SMILES | PKA-R1A activ | Yeast UUG start | ABCB6 inh 2 | Exocytosis inh | pCIP destab | PKA-R2B act | ABCB6 blocker 1
COC(=O)CCC(=O)Nc1cc(Cl)cc(Cl)c1 | -8 | · | 72* | 2 | -1 | -6 | 100
CC(=O)N1C(=O)C2(C(C#N)=C(N)Oc3c2c(C)nn3-c2ccccc2)c2ccccc21 (stereo not drawn) | -7 | 12 | 44* | 4 | -4 | -8 | 101
Cc1ccc(S(=O)(=O)Nc2ccc3c(c2)C(=O)N([C@@H](C)CO)C[C@H](C)[C@@H](CN(C)C(=O)c2ccccc2)OCCCC[C@@H](C)O3)cc1 | · | 18 | · | · | · | · | ·
